Earlier results, collected in publication PMC10863309 (Redox Biology, 2024).

Test system: zebrafish larvae
Settings: 100 μM; cited from earlier work

In the case of ibogaine, the “malformations in zebrafish larvae” value is given as “yolk sac and/or pericardial edemas”.
